IC50 data for one compound are collected here from US6531478B2, “Amino pyrazole derivatives useful for the treatment of obesity and other disorders” (priority 2000, dated 2003).

The chains behind the UniProt entries cited, without tags or fusion partners.
UniProt Q15761, whole entry: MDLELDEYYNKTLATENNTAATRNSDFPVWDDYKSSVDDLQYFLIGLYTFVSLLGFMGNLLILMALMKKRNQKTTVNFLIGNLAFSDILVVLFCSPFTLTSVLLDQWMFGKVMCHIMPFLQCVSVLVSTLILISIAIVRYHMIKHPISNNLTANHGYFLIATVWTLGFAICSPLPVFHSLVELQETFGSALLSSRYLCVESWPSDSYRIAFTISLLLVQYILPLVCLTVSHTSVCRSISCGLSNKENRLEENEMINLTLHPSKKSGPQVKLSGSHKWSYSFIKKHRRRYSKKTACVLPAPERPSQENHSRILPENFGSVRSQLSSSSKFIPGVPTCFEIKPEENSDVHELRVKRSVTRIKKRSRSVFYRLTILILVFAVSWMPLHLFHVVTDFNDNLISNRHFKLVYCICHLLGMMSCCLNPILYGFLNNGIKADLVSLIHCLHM

The target of this assay is human neuropeptide Y5 receptor (Homo sapiens, UniProt Q15761). The experiment in a line: NPY5 HTS centrifugation assay: competition with 125I-PYY for binding to membranes of NPY5-transfected HEK-293 cells. The conditions noted are these: read-out: IC50 hNPY5; inhibition of 125I-PYY binding; values in nM. The protocol:
NPY5 HTS Centrifugation Assay
The compounds described in this invention were evaluated for binding to the human neuropeptide Y5 receptor.
The human NPY5 receptor cDNA (Genbank Accession number U66275) was inserted into the vector pClneo (Invitrogen) and transfected into human embryonic kidney cells (HEK-293) via Calcium phosphate method (Cullen 1987). Stably transfected cells were selected with G-418 (600 ug/mL). Stably transfected cells served as the source for the membranes for the NPY5 receptor binding assay.
NPY5-transfected HEK293 cells were grown to confluence in 150 cm^2 culture dishes. Cells were washed once with phosphate-buffered saline (Gibco Cat# 14040-133). […]
A competition binding assay, known to those skilled in the art, was used in which the test compounds (aminopyrazoles of formula (I) compete with ^1251I-PYY for binding to cell membranes. In simple terms, less ^125I-PYY bound to the membranes implies that the test compound is a good inhibitor (competitor). Bound ^1251I-PYY is determined by centrifugation the membranes, aspirating supernatant, washing away residual ^125I-PYY and subsequently counting the bound sample in a γ-counter. […]
Compounds to be tested were prepared as 10× stocks in binding buffer and added first to assay tubes (RIA vials, Sarstedt). […] Vials were put in carrier polypropylene 12×75 tube and counted in gamma counter (Packard). […]

For orientation: IC50 means the concentration that inhibits the measured activity by half. Turning to `Nc1cc(-c2ccc(CNS(=O)(=O)c3ccccc3)cc2)nn1-c1cccc(C(F)(F)F)c1`, the IC50 turned out to be 114 nM.
